SMILES strings stand for the structures. ≈ marks a conversion by molar mass, not a printed value.

By MIC is commonly meant the lowest concentration found to suppress growth.

The test system of assay [1] is Pseudomonas aeruginosa ATCC 27853. In words: MIC, Pseudomonas aeruginosa ATCC 27853. The assay is classed as cell-based. The following applies: ATCC27853, read-out: MIC against Pseudomonas aeruginosa ATCC 27853, strain ATCC 27853.
Assay [2] has as its system Acinetobacter baumanii ATCC 19606. As to the kind of experiment: MIC, Acinetobacter baumanii ATCC 19606. The assay is classed as cell-based. The settings on record: Acinetobacter baumannii, ATCC19606, read-out: MIC against Acinetobacter baumanii ATCC 19606, strain ATCC 19606.
The test system of assay [3] is Salmonella enterica ATCC 14028. In words: MIC, Salmonella enterica ATCC 14028. The assay is classed as cell-based. The following applies: ATCC14028, read-out: MIC against Salmonella enterica ATCC 14028.
Assay [4] deals with Staphylococcus aureus ATCC 29213. In words: MIC, S. aureus ATCC 29213 (CLSI). In kind it is cell-based. The settings on record: ATCC29213, read-out: MIC against Staphylococcus aureus ATCC 29213, strain ATCC 29213, triplicate.
In assay [5] the test system is Staphylococcus aureus CF isolate. In words: MIC, S. aureus cystic fibrosis isolate (CLSI). The settings on record: read-out: MIC against Staphylococcus aureus CF isolate, isolate from individual with cystic fibrosis.
For assay [6], the system named is Escherichia coli ATCC 25922. As to the kind of experiment: MIC, Escherichia coli ATCC 25922. In kind it is cell-based. The following applies: ATCC25922, read-out: MIC against Escherichia coli ATCC 25922, strain ATCC 25922.

Regarding `COc1ccc2ncc(F)c(CCN3CCC(C(O)C(O)c4ccc(C)cc4)CC3)c2n1` (single isomer, unassigned) [Example 13, 1-(1-(2-(3-fluoro-6-methoxy-1,5-naphthyridin-4-yl)ethyl)piperidin-4-yl)-2-(p-tolyl)ethane-1,2-diol], the MIC in assay [1] was above 64 µg/mL.

Regarding `COc1ccc2ncc(F)c(CCN3CCC(/C=C/c4ccc(C)cc4)CC3)c2n1` [Example 1, (E)-7-fluoro-2-methoxy-8-(2-(4-(4-methylstyryl)piperidin-1-yl)ethyl)-1,5-naphthyridine], the MIC in assay [2] was 64 µg/mL (≈ 158 µM); in assay [3] it was above 64 µg/mL; in assay [4], 0.25 to 0.5 µg/mL (≈ 0.616 to 1.23 µM); in assay [1], above 64 µg/mL; in assay [5], 0.5 to 2 µg/mL (≈ 1.23 to 4.93 µM).

For the molecule `COc1ccc2ncc(F)c(CCN3CCC([C@H](O)[C@@H](O)c4ccc(C)cc4)CC3)c2n1` [Example 7, (1S,2S)-1-(1-(2-(3-fluoro-6-methoxy-1,5-naphthyridin-4-yl)ethyl)piperidin-4-yl)-2-(p-tolyl)ethane-1,2-diol], the MIC in assay [1] was above 64 µg/mL.

Take `COc1ccc2ncc(F)c(CCN3CCC(/C=C\c4ccc(C)cc4)CC3)c2n1` [Example 10, (Z)-7-fluoro-2-methoxy-8-(2-(4-(4-methylstyryl)piperidin-1-yl)ethyl)-1,5-naphthyridine]: the MIC in assay [3] is above 64 µg/mL; in assay [4] it was 4 to 8 µg/mL (≈ 9.86 to 19.7 µM); in assay [1] it was above 64 µg/mL; in assay [5], 4 to 8 µg/mL (≈ 9.86 to 19.7 µM).

With `COc1ccc2ncc(F)c(CCN3CCC(CCc4ccc(C)cc4)CC3)c2n1` [Example 19, 7-fluoro-2-methoxy-8-(2-(4-(4-methylphenethyl)piperidin-1-yl)ethyl)-1,5-naphthyridine], the MIC in assay [3] and in assay [1] was above 64 µg/mL in each case.

Regarding `COc1ccc2ncc(F)c(CCN3CCC(CCc4ccc5c(c4)OCCO5)CC3)c2n1` [Example 20, 8-(2-(4-(2-(2,3-dihydrobenzo[b][1,4]dioxin-6-yl)ethyl)piperidin-1-yl)ethyl)-7-fluoro-2-methoxy-1,5-naphthyridine], the MIC in assay [3] was 64 µg/mL (≈ 142 µM); in assay [1], above 64 µg/mL.

`COc1ccc2ncc(F)c(CCN3CCC(CCc4ccc5c(c4)NC(=O)CO5)CC3)c2n1` [Example 21, 6-(2-(1-(2-(3-fluoro-6-methoxy-1,5-naphthyridin-4-yl)ethyl)piperidin-4-yl)ethyl)-2H-benzo[b][1,4]oxazin-3(4H)-one]: the MIC in assay [1] came to 32 µg/mL (≈ 68.9 µM).

On to `COc1ccc2ncc(F)c(CCN3CCC(C(O)Cc4ccc(C)cc4)CC3)c2n1` (stereo not shown) [Example 25, 1-(1-(2-(3-fluoro-6-methoxy-1,5-naphthyridin-4-yl)ethyl)piperidin-4-yl)-2-(p-tolyl)ethan-1-ol], for which the MIC is 64 µg/mL (≈ 151 µM) in assay [3], above 64 µg/mL in assay [1] and 0.25 to 0.5 µg/mL (≈ 0.59 to 1.18 µM) in assay [5].

With `COc1ccc2ncc(F)c(CCN3CCC(C(O)Cc4ccc5c(c4)OCCO5)CC3)c2n1` (stereo not shown) [Example 26, 2-(2,3-dihydrobenzo[b][1,4]dioxin-6-yl)-1-(1-(2-(3-fluoro-6-methoxy-1,5-naphthyridin-4-yl)ethyl)piperidin-4-yl)ethan-1-ol], the MIC in assay [1] turned out to be 64 µg/mL (≈ 137 µM).

As to `COc1ccc2ncc(F)c(CCN3CCC(C(N)Cc4ccc(C)cc4)CC3)c2n1` (stereo not shown) [Example 28, 1-(1-(2-(3-fluoro-6-methoxy-1,5-naphthyridin-4-yl)ethyl)piperidin-4-yl)-2-(p-tolyl)ethan-1-amine], the MIC in assay [2] and in assay [6] was 16 µg/mL (≈ 37.9 µM) each time.

As to `COc1ccc2ncc(F)c(CCN3CCC(C(N)Cc4ccc5c(c4)OCCO5)CC3)c2n1` (stereo not shown) [Example 29, 2-(2,3-dihydrobenzo[b][1,4]dioxin-6-yl)-1-(1-(2-(3-fluoro-6-methoxy-1,5-naphthyridin-4-yl)ethyl)piperidin-4-yl)ethan-1-amine], the values for the MIC in assay [2] and in assay [1] were 16 µg/mL (≈ 34.3 µM) and 64 µg/mL (≈ 137 µM), respectively.

On to `COc1ccc2ncc(F)c(CCN3CCC(C(N)Cc4ccc5c(c4)NC(=O)CO5)CC3)c2n1` (stereo not shown) [Example 30, 6-(2-amino-2-(1-(2-(3-fluoro-6-methoxy-1,5-naphthyridin-4-yl)ethyl)piperidin-4-yl)ethyl)-2H-benzo[b][1,4]oxazin-3(4H)-one], for which the minimal inhibitory concentration (MIC) in assay [3] came out at 32 µg/mL (≈ 66.7 µM); in assay [1] it was 64 µg/mL (≈ 133 µM); in assay [6] it was 8 µg/mL (≈ 16.7 µM); in assay [5] it was 8 µg/mL (≈ 16.7 µM).

For the origin of these results see patent publication US20260027101A1, “BACTERIAL TOPOISOMERASE INHIBITORS” (priority 2022, published 2026).
